This note sets out measurements from ChEMBL document CHEMBL1221209.

Experiment [1] relates to Mus musculus. Nature of the experiment: Inhibition of FAAH activity in KIAA1363-expressing Swiss Webster mouse brain at 100 mg/kg, ip.
Experiment [2] has as its system Mus musculus. Nature of the experiment: Inhibition of MAGL activity in KIAA1363-expressing Swiss Webster mouse at 100 mg/kg, ip.
The subject of experiment [3] is Mus musculus. Description: Effect on CB1-dependent cannabinoid-mediated hypothermia in Swiss Webster mouse at 4 mg/kg, ip.
Experiment [4] deals with Mus musculus. Description: Effect on CB1-dependent cannabinoid-mediated cataleptic behavior in KIAA1363-expressing Swiss Webster mouse at 100 mg/kg, ip.

Each structure is given as a SMILES string. Activity calls are given as the source filed them. The rule behind the calls is not given here.

Turning to `CCOP(=S)(OCC)Oc1nc(Cl)c(Cl)cc1Cl`, the inhibition entry with Mus musculus [1] and in the experiment with Mus musculus [2] was “Active” in each case.

In the case of `CCOP(=O)(OCC)Oc1nc(Cl)c(Cl)cc1Cl`, in the experiment with Mus musculus [3], the outcome was Active. In addition, the result in the experiment on Mus musculus [4] was inactive.
